Measurements: US20200353088A1, “PEPTIDE CONJUGATE CGRP RECEPTOR ANTAGONISTS AND METHODS OF PREPARATION AND USES THEREOF” (Auckland UniServices Limited, priority 2017, published 2020)

Amino acid sequences for entries named in this document (tags omitted). Residues count along the entry.
UniProt O60894, 27-148: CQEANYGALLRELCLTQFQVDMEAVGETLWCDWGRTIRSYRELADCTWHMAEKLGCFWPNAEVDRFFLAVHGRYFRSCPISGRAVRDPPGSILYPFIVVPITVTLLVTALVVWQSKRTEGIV
UniProt Q16602, 23-461: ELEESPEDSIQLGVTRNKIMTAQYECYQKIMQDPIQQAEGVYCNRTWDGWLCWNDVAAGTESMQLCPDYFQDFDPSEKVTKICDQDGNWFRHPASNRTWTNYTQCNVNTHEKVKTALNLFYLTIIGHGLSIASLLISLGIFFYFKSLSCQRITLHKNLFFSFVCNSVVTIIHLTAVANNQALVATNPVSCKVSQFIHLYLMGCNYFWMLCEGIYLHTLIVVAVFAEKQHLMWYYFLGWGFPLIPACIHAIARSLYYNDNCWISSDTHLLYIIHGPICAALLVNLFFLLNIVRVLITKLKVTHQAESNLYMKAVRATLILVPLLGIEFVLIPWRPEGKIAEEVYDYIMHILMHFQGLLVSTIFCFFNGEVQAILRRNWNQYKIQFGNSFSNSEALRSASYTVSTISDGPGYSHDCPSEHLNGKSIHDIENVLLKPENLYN

Key:
[1] = target: T1, CGRP (CLR/RAMP1) receptor (Homo sapiens, UniProt O60894+Q16602); assay: cAMP assay with antagonist pre-incubation, with or without wash step, CLR/RAMP1 transfected Cos 7 cells; assay type: cell-based
T1 construct: expressed in transfected cells; host or cells: Cos 7 (African green monkey kidney), transient transfection with polyethylenimine
Description: Cos 7 cells were cultured in Dulbecco's Modified Eagle Medium (DMEM) supplemented with 8% heat inactivated fetal bovine serum and kept in a 37° C. humidified 95% air/5% CO2 incubator. […] In a different specific experimental paradigm, media was replaced with DMEM containing 1 mM isobutylmethylxanthine and 0.1% bovine serum albumin for 30 min. After this period, 25 μl of antagonist or media was added for 15 minutes at 37° C. as a pre-incubation period. After pre-incubation, the antagonist or media were aspirated from some wells, washed once with phosphate-buffered saline and replaced with 75 μl new media. The other wells with antagonist were not washed. […] Once human alpha CGRP was added, the cells were incubated at 37° C. for 15 minutes. The media was then aspirated from the wells and reactions terminated with ice-cold absolute ethanol. […] Calculation of Antagonist Potency Values Data were analysed using Graphpad Prism 7. Antagonist pKB or pA2 values were obtained using Global Schild analysis. […] Where a single concentration of antagonist was used, pA2 values are used to describe antagonist potency.

[2] = target: T1, CGRP (CLR/RAMP1) receptor; assay: Antagonism of CGRP-induced cAMP accumulation in Cos 7 cells transfected with CLR/RAMP1; assay type: cell-based; settings: for A2 (antilog of the negative pA2), CGRP (CLR/RAMP1): transfected Cos-7 cells, cAMP
Description: 1. Antagonism of CGRP-Induced cAMP Accumulation in Transfected CGRP Receptor Expressing Cells
Simian vacuolating virus 40 (SV40) transformed African green monkey kidney (Cos 7) cells were transiently transfected with calcitonin receptor-like receptor (CLR) or calcitonin receptor (CTR) together with receptor activity-modifying protein 1 (RAMP1) to form CGRP or AMY1(a) receptors.
On the day of experimentation, media was replaced with 50 μl DMEM containing 1 mM isobutylmethylxanthine and 0.1% bovine serum albumin for 30 min. All peptides were diluted in assay medium and after the 30 min incubation, 25 μl antagonists were added, followed immediately by 25 μl human alpha CGRP (hαCGRP), giving a total assay volume of 100 μl. Once human alpha CGRP was added, the cells were incubated at 37° C. for 15 minutes. The media was then aspirated from the wells and reactions terminated with ice-cold absolute ethanol. Ethanol was evaporated to dryness and cAMP was quantified using a commercially-available assay (LANCE Perkin Elmer).
3. Calculation of Antagonist Potency Values
Data were analysed using Graphpad Prism 7. Antagonist pKB or pA2 values were obtained using Global Schild analysis. […] Where a single concentration of antagonist was used, pA2 values are used to describe antagonist potency.

[3] = target: human CGRP receptor (CLR/RAMP1), transiently transfected in Cos 7 cells (human, UniProt Q16602 23-461; O60894 27-148); assay: cell-based or functional assay

K35C(S-Pam) CGRP8-37 [A6] was tested, and the “A2, CGRP (CLR/RAMP1), Without wash” value ([1]; 15 min antagonist pre-incubation, not washed) was “(A2: 229 nM)”, the “A2, CGRP (CLR/RAMP1), With wash” value ([1]; 15 min antagonist pre-incubation, washed once with PBS) was >3000 nM and the “Fold change reduction in pA2 with wash, CGRP (CLR/RAMP1)” value ([1]; calculated from Table 2, with wash vs. without wash) was >13 fold. The “Selectivity (fold-difference CGRP vs. AMY1)” value ([2]; CGRP (CLR/RAMP1) vs. AMY1 (CTR/RAMP1), Cos-7 cells) was 12 fold and the “A2 (antilog of the negative pA2), CGRP (CLR/RAMP1)” value [2] was “(A2: 87 nM)”.

With R11C(S-Pam) α-CGRP8-37 [A9] the “A2 (antilog of the negative pA2), CGRP (CLR/RAMP1)” value [2] was “(A2: 18 nM)”.

“R11C(S-Pam), K24C(S-Pam) α-CGRP8-37 [A11]” was tested, and the “A2 (antilog of the negative pA2), CGRP (CLR/RAMP1)” value [2] was “(A2: >100 nM)”.

V8C(S-Pam)O-CGRP8-37 [C3] was tested, and the “A2 (antilog of the negative pA2), CGRP (CLR/RAMP1)” value [2] was “(A2: 0.21 nM)”.

B1: K35C(S-Pam) CGRP8-37 A6 (peptide)
peptide: VTHRLAGLLSRSGGVVKNNFVPTNVGSCAF
modifications: Cys 35 (CGRP numbering; residue 28 of the entry) S-conjugated to 2-(palmitoyloxy)ethyl (S-Pam); C-terminal amide
With B1 the “A2 (antilog of the negative pA2; cAMP assay, Cos 7)” value [3] was 87 nM and the “antagonist potency pA2 (cAMP assay, Cos 7)” value [3] was 7.06.
